Each structure is given as a SMILES string.

The chains behind the UniProt entries cited, without tags or fusion partners. Where a name states a change or a piece, a line headed by the entry shows the natural chain unless it says otherwise. Residues count along the entry.
UniProt P48730, whole entry: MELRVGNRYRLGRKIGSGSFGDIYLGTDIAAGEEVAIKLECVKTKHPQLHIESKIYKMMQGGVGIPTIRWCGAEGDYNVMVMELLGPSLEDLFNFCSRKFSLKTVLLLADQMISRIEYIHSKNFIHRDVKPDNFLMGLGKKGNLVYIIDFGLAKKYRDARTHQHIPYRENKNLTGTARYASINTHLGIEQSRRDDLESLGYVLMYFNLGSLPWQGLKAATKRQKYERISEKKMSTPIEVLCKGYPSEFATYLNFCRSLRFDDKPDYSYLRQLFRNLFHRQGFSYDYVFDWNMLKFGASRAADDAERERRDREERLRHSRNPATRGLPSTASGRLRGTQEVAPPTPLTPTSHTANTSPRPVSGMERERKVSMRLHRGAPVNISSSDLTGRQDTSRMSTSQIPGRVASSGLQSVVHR
UniProt Q15303, 26-1308 limits assumed: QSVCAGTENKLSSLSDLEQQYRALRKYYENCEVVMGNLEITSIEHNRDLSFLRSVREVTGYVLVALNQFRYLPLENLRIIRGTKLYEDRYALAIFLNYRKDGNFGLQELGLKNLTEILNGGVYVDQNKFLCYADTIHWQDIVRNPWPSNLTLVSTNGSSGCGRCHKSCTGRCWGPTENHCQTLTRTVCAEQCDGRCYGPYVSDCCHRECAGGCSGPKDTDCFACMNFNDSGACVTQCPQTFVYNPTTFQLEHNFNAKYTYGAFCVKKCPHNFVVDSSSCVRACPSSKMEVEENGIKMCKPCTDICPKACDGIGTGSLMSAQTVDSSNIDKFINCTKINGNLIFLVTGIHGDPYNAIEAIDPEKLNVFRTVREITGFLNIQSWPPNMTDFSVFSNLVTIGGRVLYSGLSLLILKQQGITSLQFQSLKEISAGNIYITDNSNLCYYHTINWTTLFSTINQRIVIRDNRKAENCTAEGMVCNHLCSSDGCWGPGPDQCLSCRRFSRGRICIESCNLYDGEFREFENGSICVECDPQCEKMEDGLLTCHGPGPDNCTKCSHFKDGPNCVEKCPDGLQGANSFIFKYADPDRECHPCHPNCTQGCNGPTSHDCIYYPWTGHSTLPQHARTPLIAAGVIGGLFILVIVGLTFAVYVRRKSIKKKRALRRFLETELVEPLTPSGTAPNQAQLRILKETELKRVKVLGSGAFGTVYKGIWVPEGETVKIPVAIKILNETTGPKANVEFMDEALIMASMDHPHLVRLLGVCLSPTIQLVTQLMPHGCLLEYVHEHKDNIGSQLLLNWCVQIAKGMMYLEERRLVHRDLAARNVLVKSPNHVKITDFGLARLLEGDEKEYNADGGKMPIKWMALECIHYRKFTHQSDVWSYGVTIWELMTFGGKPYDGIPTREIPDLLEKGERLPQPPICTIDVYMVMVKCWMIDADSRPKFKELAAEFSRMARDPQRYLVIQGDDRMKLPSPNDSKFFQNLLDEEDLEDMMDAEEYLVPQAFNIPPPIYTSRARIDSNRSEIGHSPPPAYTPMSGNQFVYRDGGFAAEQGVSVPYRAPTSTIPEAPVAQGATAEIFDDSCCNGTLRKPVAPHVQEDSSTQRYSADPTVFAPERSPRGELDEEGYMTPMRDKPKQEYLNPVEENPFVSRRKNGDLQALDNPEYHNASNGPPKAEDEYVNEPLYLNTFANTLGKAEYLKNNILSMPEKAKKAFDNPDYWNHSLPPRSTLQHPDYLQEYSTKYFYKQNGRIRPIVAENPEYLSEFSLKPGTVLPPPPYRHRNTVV
UniProt Q8N4C8, whole entry: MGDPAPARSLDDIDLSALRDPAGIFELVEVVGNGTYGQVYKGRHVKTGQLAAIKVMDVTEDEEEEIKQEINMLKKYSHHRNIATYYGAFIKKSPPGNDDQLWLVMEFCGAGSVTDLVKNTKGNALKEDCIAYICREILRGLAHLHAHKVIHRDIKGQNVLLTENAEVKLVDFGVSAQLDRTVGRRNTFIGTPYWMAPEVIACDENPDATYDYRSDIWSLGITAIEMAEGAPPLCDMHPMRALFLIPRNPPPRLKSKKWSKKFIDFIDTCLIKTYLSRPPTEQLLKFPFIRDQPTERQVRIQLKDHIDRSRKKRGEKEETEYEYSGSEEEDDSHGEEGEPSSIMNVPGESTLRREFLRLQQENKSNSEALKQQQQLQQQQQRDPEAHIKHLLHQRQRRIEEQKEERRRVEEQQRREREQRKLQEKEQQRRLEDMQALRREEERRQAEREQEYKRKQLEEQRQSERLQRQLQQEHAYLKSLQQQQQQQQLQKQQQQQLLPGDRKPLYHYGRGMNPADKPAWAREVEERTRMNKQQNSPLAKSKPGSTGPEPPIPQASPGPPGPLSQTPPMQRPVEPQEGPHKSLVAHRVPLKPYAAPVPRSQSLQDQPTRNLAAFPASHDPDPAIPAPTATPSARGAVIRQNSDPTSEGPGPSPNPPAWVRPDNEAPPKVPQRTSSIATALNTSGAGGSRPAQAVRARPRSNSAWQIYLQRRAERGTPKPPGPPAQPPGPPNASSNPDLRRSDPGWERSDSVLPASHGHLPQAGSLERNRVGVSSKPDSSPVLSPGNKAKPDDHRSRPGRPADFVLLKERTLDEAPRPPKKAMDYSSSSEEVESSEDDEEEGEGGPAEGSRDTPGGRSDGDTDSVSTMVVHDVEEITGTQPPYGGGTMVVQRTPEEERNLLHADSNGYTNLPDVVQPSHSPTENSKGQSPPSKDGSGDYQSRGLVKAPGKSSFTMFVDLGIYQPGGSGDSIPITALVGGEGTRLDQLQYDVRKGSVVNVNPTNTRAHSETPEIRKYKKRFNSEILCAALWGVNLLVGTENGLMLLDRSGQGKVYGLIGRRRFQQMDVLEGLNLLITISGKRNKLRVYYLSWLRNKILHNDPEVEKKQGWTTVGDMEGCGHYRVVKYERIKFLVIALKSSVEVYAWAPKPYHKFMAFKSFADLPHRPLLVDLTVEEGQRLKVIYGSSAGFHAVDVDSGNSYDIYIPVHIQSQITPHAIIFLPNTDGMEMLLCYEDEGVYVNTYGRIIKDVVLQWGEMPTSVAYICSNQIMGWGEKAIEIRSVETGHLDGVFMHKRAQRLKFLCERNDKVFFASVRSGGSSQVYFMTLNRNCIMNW

We go through one compound from US20220281846A1, “COMPOUNDS AND COMPOSITIONS FOR THE TREATMENT OF RESPIRATORY DISEASES” (THE UNIVERSITY OF MELBOURNE, priority 2018, published 2022).

For assay [1], the target named is human recombinant Casein kinase 18 (CK1δ) (Homo sapiens, UniProt P48730). The experiment in a line: Kinase inhibition assay (HotSpot, Reaction Biology Corp), CK1δ. The conditions noted are these: 10 μM ATP, 10-dose IC50 mode. The assay is classed as biochemical.
In another assay the target is ERBB4/HER4 (Homo sapiens, UniProt Q15303). The experiment in a line: Kinase inhibition assay (HotSpot), ERBB4/HER4. The conditions noted are these: read-out: Compound IC50 (M) ERBB4/HER4; 10 μM ATP, 10-dose IC50 mode.
The target of a further assay is MINK/MINK1 (Homo sapiens, UniProt Q8N4C8). The experiment in a line: Kinase inhibition assay (HotSpot), MINK/MINK1. The conditions noted are these: read-out: Compound IC50 (M) MINK/MINK1; 10 μM ATP, 10-dose IC50 mode.
In assay [2] the test system is TGF-β-induced IL-11 in primary human parenchymal fibroblast cells (pFbs). In words: Human parenchymal fibroblast cell assay, TGF-β-induced IL-11 (ELISA). The conditions noted are these: compounds 0.1-10 μM 30 min prior to TGF-β1, 16-24 hours; 4.00* is assigned to compounds that failed to cause 50% or more inhibition at 10 mM.

As for `OCCCNc1nccc(-c2c(-c3ccc(F)cc3)ncn2C2CCCCC2)n1`, in assay [1] (casein kinase 1δ), the pIC50 was 8.74. Moreover, the results for the IC50 (in assay [1] (read-out: Compound IC50 (M) CK1δ); on ERBB4/HER4; on MINK/MINK1) were 1.82e-09 M, 3.12e-06 M and 4.16e-08 M, respectively. The pIC50 IL-11 suppression in assay [2] is 4 ·.
